From article PMC4549708, “Inhibition of neuraminidase by Ganoderma triterpenoids and implications for neuraminidase inhibitor design” (Scientific Reports, 2015)

Molecular target: NA (H1N1,09) (Influenza A virus, UniProt C3W5S3)
Experiment: biochemical
Details: for inhibition at 200 µM: 200 μM of each compound, n = 3, means ± standard deviation, read-out: Inhibition rate (%) NA(H1N1,09)

Row | SMILES | inhibition at 200 µM [%] | IC50 (in vitro NA inhibition assay (n = 3)) [µM]
1 | C/C(=C\CC[C@@H](C)[C@H]1C[C@H](O)[C@@]2(C)C3=CC[C@H]4C(C)(C)C(=O)CC[C@]4(C)C3=CC[C@]12C)C(=O)O [Compound 2, Ganoderic acid TR] | 87.4 ± 1.6 | 4.6 ± 1.7
2 | C[C@H](CC[C@H](O)C(C)(C)O)[C@H]1CC[C@@]2(C)C3=CC[C@H]4C(C)(C)C(=O)CC[C@]4(C)C3=CC[C@]12C [Compound 28, Ganodermanondiol] | 53.1 ± 2.5 | 
